Measurements: patent publication US20260297101A1 (AbbVie Inc., priority 2015, published 2026)

System: pediatric subjects with severe atopic dermatitis

CC[C@@H]1CN(C(=O)NCC(F)(F)F)C[C@@H]1c1cnc2cnc3[nH]ccc3n12 [upadacitinib, (3S,4R)-3-ETHYL-4-(3H-IMIDAZO[1,2-a]PYRROLO[2,3-e]-PYRAZIN-8-YL)-N-(2,2,2-TRIFLUOROETHYL)PYRROLIDINE-1-CARBOXAMIDE]
mean percent change from baseline of the EASI score (Week 12, overall population): −79.8%
median percent change from baseline of the EASI score (Week 12, overall population): −82.9%
Change in EASI, mean (SD) (Week 12, as observed, ITT, enrollment on or after protocol v4.0, N=7): −26.5 (6.58)
